What was measured:
Acetylcholinesterase = Acetylcholinesterase (Electrophorus electricus, UniProt O42275); assay: Inhibition of electric eel AChE by Ellman's method
Cholinesterase = Cholinesterase (Equus caballus, UniProt P81908); assay: Inhibition of horse BChE

Amino acid sequences for entries named in this document (tags omitted). A change or cut given only in a name is not applied to a line headed by its entry.
UniProt O42275: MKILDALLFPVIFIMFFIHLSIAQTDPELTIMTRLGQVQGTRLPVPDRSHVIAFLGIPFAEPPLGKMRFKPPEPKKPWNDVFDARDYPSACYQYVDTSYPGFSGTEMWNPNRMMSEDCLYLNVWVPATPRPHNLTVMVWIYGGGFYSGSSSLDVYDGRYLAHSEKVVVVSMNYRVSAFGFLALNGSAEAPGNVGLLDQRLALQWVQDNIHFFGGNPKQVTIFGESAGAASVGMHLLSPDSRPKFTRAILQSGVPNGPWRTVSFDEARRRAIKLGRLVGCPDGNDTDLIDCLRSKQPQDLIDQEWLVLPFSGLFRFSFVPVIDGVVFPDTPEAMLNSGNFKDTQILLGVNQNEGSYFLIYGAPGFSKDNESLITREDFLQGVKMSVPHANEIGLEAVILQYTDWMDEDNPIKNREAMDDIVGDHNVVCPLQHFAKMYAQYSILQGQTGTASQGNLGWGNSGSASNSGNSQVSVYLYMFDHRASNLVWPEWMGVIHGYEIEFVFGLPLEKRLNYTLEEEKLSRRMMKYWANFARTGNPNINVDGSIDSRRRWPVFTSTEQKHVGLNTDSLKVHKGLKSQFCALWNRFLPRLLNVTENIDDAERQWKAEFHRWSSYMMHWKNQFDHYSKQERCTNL
UniProt P81908, whole entry: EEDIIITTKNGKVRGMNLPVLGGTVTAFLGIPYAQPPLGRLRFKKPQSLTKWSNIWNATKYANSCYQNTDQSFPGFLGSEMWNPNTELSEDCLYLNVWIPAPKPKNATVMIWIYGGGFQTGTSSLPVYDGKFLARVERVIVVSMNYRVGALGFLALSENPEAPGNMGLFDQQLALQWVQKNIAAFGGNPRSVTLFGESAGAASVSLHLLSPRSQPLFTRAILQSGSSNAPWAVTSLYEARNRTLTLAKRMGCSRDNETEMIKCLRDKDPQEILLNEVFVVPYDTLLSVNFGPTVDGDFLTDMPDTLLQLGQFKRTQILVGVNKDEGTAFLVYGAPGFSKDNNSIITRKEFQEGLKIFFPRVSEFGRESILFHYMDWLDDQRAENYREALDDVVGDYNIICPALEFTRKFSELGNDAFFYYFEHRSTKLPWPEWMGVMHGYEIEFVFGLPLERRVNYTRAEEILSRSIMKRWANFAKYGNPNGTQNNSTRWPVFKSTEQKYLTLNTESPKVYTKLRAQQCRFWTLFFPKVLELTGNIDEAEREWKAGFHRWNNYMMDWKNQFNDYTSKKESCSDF

For `CNC(=O)Oc1ccc2c(c1)[C@]1(C)CCN(C)[C@@H]1N2C` [PHYSOSTIGMINE], the IC50 (Acetylcholinesterase) was 0.041 µM and the IC50 (Cholinesterase) was 0.857 µM.

From ChEMBL document CHEMBL1155699, “Steroidal alkaloids from the leaves of Sarcococca coriacea of Nepalese origin” (J Nat Prod, 2001)
